The record followed here is PubChem BioAssay AID720631 (The Scripps Research Institute Molecular Screening Center, 2013).

The chains behind the UniProt entries cited, without tags or fusion partners. Where a name states a change or a piece, a line headed by the entry shows the natural chain unless it says otherwise.
UniProt P02675: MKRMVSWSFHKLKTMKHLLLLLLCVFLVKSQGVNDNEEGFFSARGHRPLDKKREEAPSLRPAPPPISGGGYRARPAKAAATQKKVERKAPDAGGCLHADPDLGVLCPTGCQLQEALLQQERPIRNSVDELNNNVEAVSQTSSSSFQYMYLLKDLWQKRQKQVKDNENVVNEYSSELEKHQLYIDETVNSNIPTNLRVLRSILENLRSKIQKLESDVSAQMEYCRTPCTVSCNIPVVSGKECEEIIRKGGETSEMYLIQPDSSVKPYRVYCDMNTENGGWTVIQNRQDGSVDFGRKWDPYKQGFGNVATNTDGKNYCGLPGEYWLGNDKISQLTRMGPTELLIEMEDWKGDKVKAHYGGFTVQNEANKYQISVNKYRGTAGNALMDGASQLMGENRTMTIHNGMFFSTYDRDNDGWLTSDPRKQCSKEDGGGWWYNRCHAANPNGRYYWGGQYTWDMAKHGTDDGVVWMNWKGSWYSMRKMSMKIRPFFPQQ

The assay concerns the target Fibrinogen beta chain (Homo sapiens) (UniProt P02675). Kind of assay: inhibitors of Tn6 peptide binding to fibrin DD(E), confirmation, biochemical, fluorescence polarization, human fibrin, Tn6 probe (AID 720631).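 Also: 0% = plate median of compound wells and 100% = inhibitor peptide control.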 As to conditions: FP displacement of TRITC-Tn6 peptide from DD(E); at 8.3 µM; hits give high values; 0% = per-plate median of test wells. Background: Fluorescence polarisation rises when a labelled molecule tumbles more slowly, as on binding a larger partner.

Structures are written as SMILES. The entries are a selection whose mix differs from that of the whole data set. Activity calls are given as the source filed them.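 The calls were made as follows: active = inhibition above the mean of compounds lying within the control limits plus 3 SD (cut at about 16% in these data); inactive = the rest.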

A word on the inhibition: it is the percentage by which the read-out fell short of the control. For the compound `Nc1cccc2c([As](=O)(O)O)cccc12`, the inhibition was inactive: 15%.
